## Measured affinities in a library of Ab-91 heavy chain variants

Binding partner: SARS-CoV-2 spike HR2 peptide, sequence PDVDLGDISGINAS.

Parent scFv Ab-91: VL joined to VH by a 15-residue (Gly4Ser)3 linker. Changes lie in the heavy chain CDRs alone.
VL: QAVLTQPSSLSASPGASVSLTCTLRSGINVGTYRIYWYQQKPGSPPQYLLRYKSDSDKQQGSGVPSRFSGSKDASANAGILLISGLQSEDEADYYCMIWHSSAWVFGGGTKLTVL
VH: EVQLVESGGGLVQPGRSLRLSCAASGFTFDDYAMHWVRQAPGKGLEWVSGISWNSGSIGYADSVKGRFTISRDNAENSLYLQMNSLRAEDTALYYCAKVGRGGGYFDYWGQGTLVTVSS

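The parent was found by panning a naive human phage display library on the peptide. Library AAYL51 holds single substitutions and randomly drawn double and triple substitutions in the CDRs. In AlphaSeq, yeast of one mating type display the scFv and yeast of the other type display the target. Pairs that bind mate more often; barcode pairs of the diploids are counted by sequencing. A regression on co-assayed BCL2-family reference pairs converts the normalised counts of each replicate to an apparent Kd. There are three technical replicates.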

Substitutions are numbered in sequence along the VH above, starting at 1 (not Kabat).
Every variant below is changed at G56 of the VH (sequential numbering).
Scale: log10 of Kd in nM, estimated from mating counts; low values are strong binders.
Replicates are averaged; those with no signal do not enter the mean.
Where no diploid with the target was found in that replicate, the entry reads "ND": below detection, most likely a poor binder, though not proof of it.
As a blank, each scFv also met three strains without target: over library AAYL51, 21% of these pairings were detected, typically at 4.54 and seldom below 3.26. For each scFv, signals with the empty controls are counted beside the result.
In this assay the parent's reference entry averaged 1.86; its copy inside this library read 0.88.

With F27W G56H V99L the result was ND, 4.71, ND (controls 1 of 9).
With D31W S55W G56V the result was ND, ND, ND (controls 1 of 9).
With G56T A61V G102T the result was ND, ND, ND (controls 0 of 9).
With M34P G56P I58D the result was 4.14, ND, ND (controls 0 of 9).
With F29I G56V Y105A the result was 4.15, 4.12, ND (mean 4.14; controls 3 of 9).
With G26K G56T G103P the result was 3.76, ND, 2.56 (mean 3.16; controls 0 of 9).
With D30F G56S S63P the result was 5.22, 3.99, 4.57 (mean 4.59; controls 1 of 9).
With G56I F106M the result was 1.22, 1.55, 0.49 (mean 1.09; controls 3 of 9).
With Y32E G56M S63H the result was ND, ND, ND (controls 1 of 9).
With D31H G56K R101E the result was 2.22, 2.36, 1.74 (mean 2.11; controls 3 of 9).
With T28P G56P V99G the result was 4.36, ND, ND (controls 2 of 9).
With G56T I58D G103Y the result was ND, ND, ND (controls 1 of 9).
With G26F D31H G56T the result was ND, 5.89, ND (controls 1 of 9).
With W53A G56A A61M the result was 1.53, 1.42, 0.94 (mean 1.30; controls 1 of 9).
With F29C G56E I58E the result was 2.58, 4.08, 3.53 (mean 3.39; controls 0 of 9).
With G56V K65I G103M the result was 1.10, 1.11, 0.47 (mean 0.89; controls 5 of 9).
With G56K R101A the result was ND, 5.86, 4.44 (mean 5.15; controls 3 of 9).
With G56A D62S Y108H the result was 1.84, 1.47, 1.15 (mean 1.49; controls 0 of 9).
With G56H V64E K65T the result was ND, ND, ND (controls 0 of 9).
With G56W G104H D107E the result was 3.96, 4.51, ND (mean 4.24; controls 2 of 9).
With G56I I58R V64Y the result was ND, ND, 4.30 (controls 2 of 9).
With G50L G56R F106S the result was ND, ND, ND (controls 1 of 9).
With S55G G56W S57F the result was 4.86, 5.18, ND (mean 5.02; controls 6 of 9).
With G56P G59M Y108C the result was ND, ND, ND (controls 0 of 9).
With T28V G56T Y60W the result was ND, 4.90, 4.25 (mean 4.58; controls 1 of 9).
With G56C G59S G103V the result was ND, 5.27, ND (controls 2 of 9).
With G56R V99G G100E the result was ND, ND, 3.58 (controls 1 of 9).
With N54Y G56N K65A the result was 4.72, 3.04, ND (mean 3.88; controls 1 of 9).
With G26E F27T G56E the result was 1.27, 1.48, 0.87 (mean 1.21; controls 5 of 9).
With G26V G56Y G59E the result was 5.34, 6.39, 4.08 (mean 5.27; controls 5 of 9).
With G56Y S57P G102M the result was 4.88, 4.58, ND (mean 4.73; controls 1 of 9).
With Y32A A33C G56Y the result was 4.63, 5.06, 5.89 (mean 5.19; controls 7 of 9).
With N54F G56V G103N the result was ND, ND, ND (controls 0 of 9).

Reference: Engelhart et al. 2022, doi:10.1038/s41597-022-01779-4. File: FLAb, binding data.